From ChEMBL document CHEMBL3862036, “Biphenyl Pyridazinone Derivatives as Inhaled PDE4 Inhibitors: Structural Biology and Structure-Activity Relationships” (J Med Chem, 2016)

By UniProt entry, the sequences of proteins in these tests, tags left out. Where a name states a change or a piece, a line headed by the entry shows the natural chain unless it says otherwise.
UniProt Q07343: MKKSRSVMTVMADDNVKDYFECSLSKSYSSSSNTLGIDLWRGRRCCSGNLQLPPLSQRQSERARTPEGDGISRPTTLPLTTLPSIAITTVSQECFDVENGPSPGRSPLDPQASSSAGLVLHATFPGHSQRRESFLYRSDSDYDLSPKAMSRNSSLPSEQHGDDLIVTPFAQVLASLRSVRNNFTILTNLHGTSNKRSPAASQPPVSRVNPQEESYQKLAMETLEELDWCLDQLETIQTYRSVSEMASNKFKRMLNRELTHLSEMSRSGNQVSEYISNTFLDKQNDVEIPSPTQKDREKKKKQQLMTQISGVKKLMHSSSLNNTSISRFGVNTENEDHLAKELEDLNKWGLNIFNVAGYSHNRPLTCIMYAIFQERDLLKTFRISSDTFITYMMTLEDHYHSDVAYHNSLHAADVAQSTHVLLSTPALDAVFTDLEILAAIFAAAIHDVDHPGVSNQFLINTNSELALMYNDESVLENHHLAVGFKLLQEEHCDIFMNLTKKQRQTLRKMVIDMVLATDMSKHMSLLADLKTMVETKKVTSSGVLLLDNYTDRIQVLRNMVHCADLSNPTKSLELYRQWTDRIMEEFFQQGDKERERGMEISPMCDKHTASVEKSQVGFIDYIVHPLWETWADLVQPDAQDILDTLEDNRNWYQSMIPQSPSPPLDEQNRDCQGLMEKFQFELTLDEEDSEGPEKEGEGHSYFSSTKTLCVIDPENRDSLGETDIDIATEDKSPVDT

Key:
[1] = biological target: 3',5'-cyclic-AMP phosphodiesterase 4B (Homo sapiens, UniProt Q07343); assay: Inhibition of human recombinant PDE4B1 assessed as reduction in [3H]cAMP hydrolysis to [3H]AMP incubated for 60 mins by PDE-SPA assay
In short: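 Compounds were run from 10 μM to 10 pM in 5% final DMSO. Incubation was 60 min at room temperature with agitation (~10–20% conversion), then stopped with PDE SPA beads. [3H]AMP was counted by scintillation. Duplicates; IC50 calculated.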

[2] = Selectivity index, ratio of IC50 for adenosine A1/A2a/A2b receptor (unknown origin) to IC50 for inhibition of PDE4 in PBMC (unknown origin) assessed as reduction in LPS-induced TNFalpha production; design: species or system Homo sapiens
[3] = Inhibition of PDE4 in PBMC (unknown origin) assessed as reduction in LPS-induced TNFalpha production incubated for 24 hrs by ELISA; conditions: Homo sapiens

| SMILES | IC50 [1] [nM] | Ratio IC50 [2] | IC50 [3] [nM] |
| --- | --- | --- | --- |
| CCn1nc(-c2cccc(-c3ccc(O)cc3)c2)cc(NC(=O)Nc2c(Cl)cncc2Cl)c1=O | 0.06 |  |  |
| CCn1nc(-c2cccc(-c3ccc(CC(=O)O)cc3)c2)cc(NC(=O)Nc2c(Cl)cncc2Cl)c1=O | 0.05 |  |  |
| CCn1nc(-c2cccc(-c3cccc(CC(=O)NCCCCCCCN(C)CCO)c3)c2)cc(NC(=O)Nc2c(Cl)cncc2Cl)c1=O | 0.05 |  |  |
| CCn1nc(-c2cccc(Br)c2)cc(NC(=O)Nc2c(Cl)cncc2Cl)c1=O | 1.7 |  |  |
| CCn1nc(-c2cccc(-c3cc(OCC4CC4)cc(C(=O)NCCN4CCCCC4)c3)c2)cc(NC(=O)Nc2c(Cl)cncc2Cl)c1=O | 0.15 | 92 |  |
| CCn1nc(-c2cccc(-c3cncc(O)c3)c2)cc(NC(=O)Nc2c(Cl)cncc2Cl)c1=O | 0.085 |  |  |
| CCn1nc(-c2cccc(-c3ccc(CC(=O)NCCN4CCCCC4)cc3)c2)cc(NC(=O)Nc2c(Cl)cncc2Cl)c1=O | 0.05 |  |  |
| CCn1nc(-c2cccc(-c3ccc(F)c(C(=O)O)c3)c2)cc(NC(=O)Nc2c(Cl)cncc2Cl)c1=O | 0.16 |  |  |
| CCn1nc(-c2cccc(-c3ccccc3C(=O)O)c2)cc(NC(=O)Nc2c(Cl)cncc2Cl)c1=O | 4.83 |  |  |
| CCn1nc(-c2cccc(-c3cc(C(=O)NCCCN(C)C)cc(C(=O)OC)c3)c2)cc(NC(=O)Nc2c(Cl)cncc2Cl)c1=O | 0.03 | >1000 |  |
| CCn1nc(-c2cccc(-c3cccc(C(=O)NCCN4CCNCC4)c3)c2)cc(NC(=O)Nc2c(Cl)cncc2Cl)c1=O | 0.38 |  |  |
| CCn1nc(-c2cccc(-c3cccc(C(=O)NCCC4CCCN4C)c3)c2)cc(NC(=O)Nc2c(Cl)cncc2Cl)c1=O (configuration not stated) | 0.05 |  |  |
| CCn1nc(-c2cccc(-c3cc(C(=O)NCCO)cc(C(=O)NCCN4CCCCC4)c3)c2)cc(NC(=O)Nc2c(Cl)cncc2Cl)c1=O | 0.03 | >865 |  |
| CCn1nc(-c2cccc(-c3ccc(O)c(F)c3)c2)cc(NC(=O)Nc2c(Cl)cncc2Cl)c1=O | 0.06 |  |  |
| CCn1nc(-c2cccc(-c3cc(C(=O)NCCN4CCCCC4)cc(C(=O)NC4CC4)c3)c2)cc(NC(=O)Nc2c(Cl)cncc2Cl)c1=O | 0.06 | 271 |  |
| CCn1nc(-c2cccc(-c3ccc(C(N)=O)cc3)c2)cc(NC(=O)Nc2c(Cl)cncc2Cl)c1=O | 0.11 |  |  |
| CCn1nc(-c2cccc(-c3cc(C(=O)O)ccc3F)c2)cc(NC(=O)Nc2c(Cl)cncc2Cl)c1=O | 0.08 |  |  |
| CCn1nc(-c2cccc(-c3cncc(C(=O)O)c3)c2)cc(NC(=O)Nc2c(Cl)cncc2Cl)c1=O | 0.14 |  |  |
| CCn1nc(-c2cccc(-c3cccc(C(=O)NCCN4CCCCC4)c3)c2)cc(NC(=O)Nc2c(Cl)cncc2Cl)c1=O | 0.13 |  |  |
| CCNC(=O)c1cc(C(=O)NCCCN(C)C)cc(-c2cccc(-c3cc(NC(=O)Nc4c(Cl)cncc4Cl)c(=O)n(CC)n3)c2)c1 | 0.05 | >1000 |  |
| CCn1nc(-c2cccc(-c3cc(C(=O)NCC[C@H]4CCCN4C)cc(C(=O)NC4CC4)c3)c2)cc(NC(=O)Nc2c(Cl)cncc2Cl)c1=O | 0.05 | 486 |  |

| SMILES | IC50 [1] [nM] | Ratio IC50 [2] | IC50 [3] [nM] |
| --- | --- | --- | --- |
| CCOc1cc(C(=O)NC2CC2)cc(-c2cccc(-c3cc(NC(=O)Nc4c(Cl)cncc4Cl)c(=O)n(CC)n3)c2)c1 | 0.31 | 245 |  |
| CCn1nc(-c2cccc(-c3cc(F)ccc3O)c2)cc(NC(=O)Nc2c(Cl)cncc2Cl)c1=O | 0.24 |  |  |
| CCn1nc(-c2cccc(-c3cccc(CC(=O)O)c3)c2)cc(NC(=O)Nc2c(Cl)cncc2Cl)c1=O | 0.04 |  |  |
| CCn1nc(-c2cccc(-c3cccc(C(=O)NC4CC4)c3)c2)cc(NC(=O)Nc2c(Cl)cncc2Cl)c1=O | 0.03 |  |  |
| CCn1nc(-c2cccc(-c3cc(C(=O)NCCN4CCOCC4)cc(C(=O)NC4CC4)c3)c2)cc(NC(=O)Nc2c(Cl)cncc2Cl)c1=O | 0.09 | >1000 | 0.09 |
| CCn1nc(-c2cccc(-c3ccc(CC(=O)NCCCCCCCN(C)CCO)cc3)c2)cc(NC(=O)Nc2c(Cl)cncc2Cl)c1=O | 0.03 |  |  |
| CCn1nc(-c2cccc(-c3ccc(O)nc3)c2)cc(NC(=O)Nc2c(Cl)cncc2Cl)c1=O | 0.38 |  |  |
| CCn1nc(-c2cccc(-c3ccccc3O)c2)cc(NC(=O)Nc2c(Cl)cncc2Cl)c1=O | 0.35 |  |  |
| CCn1nc(-c2cccc(-c3cccc(C(N)=O)c3)c2)cc(NC(=O)Nc2c(Cl)cncc2Cl)c1=O | 0.05 |  |  |
| CCn1nc(-c2cccc(-c3cccc(C(=O)O)c3)c2)cc(NC(=O)Nc2c(Cl)cncc2Cl)c1=O | 0.07 |  |  |
| CCn1nc(-c2cccc(-c3cccc(O)c3F)c2)cc(NC(=O)Nc2c(Cl)cncc2Cl)c1=O | 0.6 |  |  |
| CCn1nc(-c2cccc(-c3cccc(C(=O)NCCCCCCCN(C)CCO)c3)c2)cc(NC(=O)Nc2c(Cl)cncc2Cl)c1=O | 0.03 |  |  |
| CCn1nc(-c2cccc(-c3cccc(O)c3)c2)cc(NC(=O)Nc2c(Cl)cncc2Cl)c1=O | 0.35 |  |  |
| CCn1nc(-c2cccc(-c3ccc(O)cc3F)c2)cc(NC(=O)Nc2c(Cl)cncc2Cl)c1=O | 0.04 |  |  |
| CCn1nc(-c2cccc(-c3cc(C(=O)NC4CC4)cc(C(=O)NC4CC4)c3)c2)cc(NC(=O)Nc2c(Cl)cncc2Cl)c1=O | 0.21 | 810 |  |
| CCn1nc(-c2cccc(-c3ccc(F)cc3O)c2)cc(NC(=O)Nc2c(Cl)cncc2Cl)c1=O | 0.7 |  |  |
| CCn1nc(-c2cccc(-c3cccc(C(=O)NCCN(C)C)c3)c2)cc(NC(=O)Nc2c(Cl)cncc2Cl)c1=O | 0.05 |  |  |
| CCn1nc(-c2cccc(-c3ccc(C(=O)O)cc3)c2)cc(NC(=O)Nc2c(Cl)cncc2Cl)c1=O | 0.08 |  |  |
| CCn1nc(-c2cccc(-c3cc(C#N)cc(C(=O)NC4CC4)c3)c2)cc(NC(=O)Nc2c(Cl)cncc2Cl)c1=O | 0.37 | >1000 |  |
| CCn1nc(-c2cccc(-c3cccc(C(=O)NCCN4CCOCC4)c3)c2)cc(NC(=O)Nc2c(Cl)cncc2Cl)c1=O | 0.014 |  |  |
